In ChEMBL document CHEMBL1132296, “Anticonvulsant and sodium channel-blocking properties of novel 10,11-dihydro-5H-dibenz[b,f]azepine-5-carboxamide derivatives” (J Med Chem, 1999):

What was measured:
[1] = Protective index value of the compound, given by intraperitoneally (TD50/ED50); assay type: functional
Rattus norvegicus = species: Rattus norvegicus; experiment: Compound was tested for anticonvulsant activity against MES-induced seizures in rat; set-up: concentration or dose not given beside the values

| SMILES | Protective index [1] | Protection (Rattus norvegicus) [%] |
| --- | --- | --- |
| NC(=O)N1c2ccccc2C[C@@H](O)c2ccccc21 | 5.4 | 22.5 |
| NC(=O)N1c2ccccc2C[C@H](O)c2ccccc21 [ESLICARBAZEPINE] | 5.6 | 42 |
| NC(=O)N1c2ccccc2CC(O)c2ccccc21 (stereo unspecified) [LICARBAZEPINE] | 6.1 | 45.2 |
